Results from US20240034729A9, “HETEROCYCLIC COMPOUND, INTERMEDIATE, PREPARATION METHOD THEREFOR AND APPLICATION THEREOF” (WUHAN LL SCIENCE AND TECHNOLOGY DEVELOPMENT CO., LTD., priority 2018, published 2024).

Sequences of proteins named here, by UniProt entry; tags and fusion partners are left off. A change or cut given only in a name is not applied to a line headed by its entry.
UniProt P56373, whole entry: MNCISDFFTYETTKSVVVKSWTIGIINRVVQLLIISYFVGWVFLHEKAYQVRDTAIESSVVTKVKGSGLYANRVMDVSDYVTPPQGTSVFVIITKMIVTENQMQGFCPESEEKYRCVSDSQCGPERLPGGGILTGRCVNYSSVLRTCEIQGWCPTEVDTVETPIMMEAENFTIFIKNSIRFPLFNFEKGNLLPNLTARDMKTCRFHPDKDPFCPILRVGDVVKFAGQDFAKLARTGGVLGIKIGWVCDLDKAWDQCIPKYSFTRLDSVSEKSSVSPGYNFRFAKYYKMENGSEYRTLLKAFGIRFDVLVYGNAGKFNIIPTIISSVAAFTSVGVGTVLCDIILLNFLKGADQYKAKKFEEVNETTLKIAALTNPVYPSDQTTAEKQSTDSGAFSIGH
UniProt Q9UBL9, whole entry: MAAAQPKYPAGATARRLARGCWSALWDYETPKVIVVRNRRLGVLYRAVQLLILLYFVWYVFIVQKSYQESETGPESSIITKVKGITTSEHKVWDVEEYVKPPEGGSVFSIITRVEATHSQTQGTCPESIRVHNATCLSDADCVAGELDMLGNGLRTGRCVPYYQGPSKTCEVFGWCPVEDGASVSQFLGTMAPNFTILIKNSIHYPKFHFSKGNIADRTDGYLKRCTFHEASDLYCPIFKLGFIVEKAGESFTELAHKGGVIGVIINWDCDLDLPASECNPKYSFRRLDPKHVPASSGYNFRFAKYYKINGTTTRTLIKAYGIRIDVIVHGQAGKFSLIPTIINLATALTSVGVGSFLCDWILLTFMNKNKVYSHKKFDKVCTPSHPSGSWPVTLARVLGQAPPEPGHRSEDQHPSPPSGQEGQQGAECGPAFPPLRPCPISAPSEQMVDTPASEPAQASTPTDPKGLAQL

How the values were obtained:
Male SD rats = experiment: Two-bottle dysgeusia test (quinine water vs normal water); format: in vivo, rat; details: 20 mg/kg
[1] = In vitro metabolic stability, human liver microsome; format: in vitro ADME; details: 1 mg/mL liver microsome protein, 37° C.; NA = essentially not metabolized
Protocol: (§1) The in vitro metabolic stability of the compounds disclosed herein was determined through incubation of liver microsomes of various species. […] At each time point, 100 μL of the reaction mixture was added into a centrifuge tube containing 400 μL of internal standard working solution (containing a 200 ng/mL solution of dexamethasone, diclofenac, tolbutamide and labetalol in acetonitrile) precooled at 0° C. so as to terminate the reaction, and the mixture was then centrifuged at 10,000 g for 10 min at 4° C. The supernatant was collected for LC-MS assay so as to obtain the values of in vitro metabolic half-life of the test compounds in liver microsomes of various species.

HepG2 cells = experiment: In vitro cytotoxicity assay, CCK-8 method; details: read-out: HepG2 CC50, 48 h
[2] = test system: Male Dunkin Hartley guinea pigs; experiment: Citric acid only cough model; design: Mean cough latency: unit not given beside the values; details: for Mean number of coughs: 17.5% citric acid
[3] = biological target: hP2X2/3 (heterodimeric receptors formed by human purinergic P2X receptors subtype 2 and subtype 3) (Homo sapiens (Human), UniProt P56373+Q9UBL9); experiment: FLIPR calcium assay, hP2X2/3 expressed in HEK293 cells (P2X2/3 receptor selectivity); format: cell-based
[4] = In vitro metabolic stability, rat liver microsome; format: in vitro ADME; details: 1 mg/mL liver microsome protein, 37° C.; NA = essentially not metabolized
Protocol: as §1

[5] = In vitro metabolic stability, guinea pig liver microsome; details: 1 mg/mL liver microsome protein, 37° C.; NA = essentially not metabolized
[6] = biological target: hP2X3 (human purinergic P2X receptor subtype 3) (Homo sapiens (Human), UniProt P56373); experiment: FLIPR calcium assay, hP2X3 expressed in HEK293 cells; format: cell-based; details: read-out: P2X3 IC50; HEK293 cells expressing hP2X3, agonist BZ-ATP 2.5 μM; class symbols
[7] = before administration (baseline of the group)

COC(=O)N1CCO[C@@H](Cc2c(-c3c(F)cc(NC(C)=O)cc3F)nc3cc(Cl)ccn23)C1
Ratio of quinine/water intake (in words) (Male SD rats; compared with the blank vehicle): almost unaffected | Quinine/tap water* 100% (Male SD rats; Table 8, rats, single intraperitoneal injection, water intake within 15 min, 0.3 mM quinine): 4.54% | T1/2 in human liver microsome [1]: 3.4438 h | CC50 (HepG2 cells): > 100 µM | Cough inhibition rate Vs Baseline (%) ([2]; 30 mg/kg): 66.8% | Cough inhibition rate Vs Vehicle (%) ([2]; 30 mg/kg): 62.7% | Number of coughs and cough latency (in words) ([2]; 30 mg/kg, compared with the blank vehicle or the condition before administration): can effectively reduce the number of coughs and prolong the cough latency | Mean cough latency ([2]; after administration, 30 mg/kg): 229.00 | Mean number of coughs ([2]; after administration, 30 mg/kg): 6.42 | Mean cough latency [2, 7]: 75.92 | Mean number of coughs [2, 7]: 19.33 | Folds of selectivity ([3]; (IC50 for P2X2/3)/(IC50 for P2X3), class symbols): A (A: folds of selectivity >1000) | IC50 ([3]; read-out: IC50 for P2X2/3 receptors, HEK293 cells expressing hP2X2/3, agonist BZ-ATP 5 μM, unit inferred): > 60 µM | T1/2 in rat liver microsome [4]: 0.875 h | T1/2 in guinea pig liver microsome [5]: 2.967 h | IC50 [6]: < 0.01 µM
